From patent publication US9789057B2, “Pharmaceutical delivery system” (Perrigo Pharma International Designated Activity Company, priority 2003, dated 2017) come the findings set out here.

The subject of this test is bacterial vaginitis, e.g., Gardnerella morphotype. To be noted: active agent in the drug delivery system.

`CCC[C@@H]1C[C@@H](C(=O)N[C@@H]([C@H]2O[C@H](SC)[C@H](O)[C@@H](O)[C@H]2O)[C@H](C)Cl)N(C)C1` [clindamycin]: the “reduction of conventional treatment period or quantity of agent used” value is listed as “at least 25%”.
